Where “and” joins values, the source holds several entries; their conditions need not be identical. Identical values can stand only once.
[1] = drug substance powder, individual determination

trisodium [3-((1S,3R)-1-biphenyl-4-ylmethyl-3-ethoxycarbonyl-1-butylcarbamoyl) propionate-(S)-3′-methyl-2′-(pentanoyl{2″-(tetrazol-5-ylate)biphenyl-4′-ylmethyl}amino) butyrate] hemipentahydrate
Compressibility Index ((Tapped Density-Bulk Density)/Tapped Density*100%, individual determination): 28% (2×) and 29% (2×) and 31%
Compressibility Index Average (average of the determinations): 29%
Bulk Density [1]: 0.239 g/mL and 0.243 g/mL and 0.245 g/mL and 0.244 g/mL and 0.240 g/mL
Tapped Density [1]: 0.331 g/mL and 0.343 g/mL and 0.346 g/mL and 0.338 g/mL and 0.347 g/mL
Flowability (rating by compressibility index, USP<1174>): Poor

— patent US10508087B2, “Crystalline forms of trisodium supramolecular complex comprising valsartan and AHU-377 and methods thereof” (CRYSTAL PHARMATECH CO., LTD., priority 2014, dated 2019)
